The assay has as its target Muscarinic acetylcholine receptor M1 (Homo sapiens) (UniProt P11229). As to the kind of experiment: Positive allosteric modulation activity at human M1 receptor.

Amino acid sequences for entries named in this document (tags omitted). A change or cut given only in a name is not applied to a line headed by its entry.
UniProt P11229: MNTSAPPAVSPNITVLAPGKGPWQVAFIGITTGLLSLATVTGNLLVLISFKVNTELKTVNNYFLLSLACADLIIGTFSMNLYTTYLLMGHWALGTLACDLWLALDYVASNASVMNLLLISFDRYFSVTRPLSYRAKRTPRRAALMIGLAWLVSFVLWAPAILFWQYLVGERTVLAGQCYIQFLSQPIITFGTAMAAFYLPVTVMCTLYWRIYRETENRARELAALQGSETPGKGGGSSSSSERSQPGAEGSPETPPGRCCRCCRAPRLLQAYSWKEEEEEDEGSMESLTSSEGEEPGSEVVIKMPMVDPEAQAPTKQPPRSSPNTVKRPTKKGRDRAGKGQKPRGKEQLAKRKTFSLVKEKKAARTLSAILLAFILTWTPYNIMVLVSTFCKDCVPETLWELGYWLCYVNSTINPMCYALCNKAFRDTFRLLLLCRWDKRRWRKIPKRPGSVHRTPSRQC

The source made the active and inactive calls. No cut-off for these calls is given here.

Regarding `Cc1nc2sc(C(=O)c3ccccc3)c(N)c2c(C)c1C`, the outcome was inactive.

The values above are taken from ChEMBL document CHEMBL4477243, “Discovery and SAR of a novel series of potent, CNS penetrant M4 PAMs based on a non-enolizable ketone core: Challenges in disposition” (Bioorg Med Chem Lett, 2016).
